Legend:
[1] = biological target: cation-independent mannose-6-phosphate receptor (CIMPR) on fibroblast cells (human) (UniProt P11717); assay: cell-based or functional assay
[2] = biological target: cation-independent mannose-6-phosphate receptor (CIMPR), immobilised; assay: CIMPR affinity column, elution with free M6P gradient, fractions read by GAA activity
[3] = biological target: cation-independent mannose-6-phosphate receptor (CIMPR) on fibroblast cells (human) (UniProt P11717)
[4] = biological target: cation-independent mannose-6-phosphate receptor (CIMPR), immobilised; assay: CIMPR affinity chromatography of ATB200 rhGAA purified with capture on an AEX column (Embodiment 2). Bound material was eluted with a free M6P gradient and fractions were assayed for GAA activity (F460).
[5] = biological target: cation-independent mannose-6-phosphate receptor (CIMPR), immobilised; assay: M6P receptor (CIMPR) plate binding assay
[6] = biological target: cation-independent mannose-6-phosphate receptor (CIMPR), immobilised; assay: CIMPR affinity chromatography of ATB200 rhGAA purified without AEX capture (Embodiment 1). This is the flow-through peak before M6P addition; fractions were assayed for GAA activity (F460).
[7] = biological target: cation-independent mannose-6-phosphate receptor (CIMPR), immobilised; assay: CIMPR affinity chromatography of ATB200 rhGAA purified without AEX capture (Embodiment 1). Bound material was eluted with a free M6P gradient and fractions were assayed for GAA activity (F460).
[8] = biological target: cation-independent mannose-6-phosphate receptor (CIMPR), immobilised; assay: CIMPR affinity chromatography, different production batches
[9] = biological target: cation-independent mannose-6-phosphate receptor (CIMPR), immobilised; assay: CIMPR affinity column, same condition as for MYOZYME and LUMIZYME
[10] = biological target: cation-independent mannose-6-phosphate receptor (CIMPR), immobilised; assay: CIMPR affinity chromatography of ATB200 rhGAA purified with capture on an AEX column (Embodiment 2). This is the flow-through peak before M6P addition; fractions were assayed for GAA activity (F460).

concentration that saturates cellular receptors (uptake into normal and Pompe fibroblasts, 16-hr incubation, internalized GAA activity) [1] [nM]	uptake efficiency constant (Kuptake) [1] [nM]	percent of rhGAA bound to CIMPR (M6P eluted) [2] [%]	percent of rhGAA not bound to CIMPR (flow through) [2] [%]	Kuptake, Pompe fibroblasts [3] [nM]	Kuptake, normal fibroblasts [3] [nM]	fraction bound to the CIMPR column and eluted with M6P (percent of total GAA activity) [4] [%]	Kd [5] [nM]	fraction not bound to the CIMPR column, flow-through (percent of total GAA activity) [6] [%]	fraction bound to the CIMPR column and eluted with M6P (percent of total GAA activity) [7] [%]	percent of rhGAA bound to CIMPR [8] [%]	percent of rhGAA bound to CIMPR [9] [%]	fraction not bound to the CIMPR column, flow-through (percent of total GAA activity) [10] [%]	Substance
250	56	22	78	57	56	–	–	–	–	–	–	–	LUMIZYME® (alglucosidase alfa, conventional rhGAA product) (from UniProt P10253 57-952) (enzyme)
–	–	27	73	–	–	–	–	–	–	–	–	–	MYOZYME® (alglucosidase alfa, conventional rhGAA product) (from UniProt P10253 57-952) (enzyme)
20	–	–	–	3	2	92	2 to 4	30	70	> 70	> 70	8	ATB200 recombinant human acid α-glucosidase (rhGAA) (from UniProt P10253 57-952) (enzyme)
